From PubChem BioAssay AID1910 (Broad Institute, 2009)
This is a selection; strong and weak results do not stand in their true shares. Some of these compounds have results that are not shown, active ones among them. The source made the active and inactive calls.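 How the source made its calls: active means mean activation of at least 10% of the iron chelator positive control signal, with at least half of replicates also reaching 10%; inconclusive means mean and replicate majority disagree about reaching 10%; inactive means mean and most replicates under 10%.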

experiment: hypoxia response element reporter activation – cell-based, U2OS HRE-luciferase, luminescence, primary screen (AID 1910); settings: hits give high values, screened at 7.5 µM (by protocol), normalized: DMSO 0%, desferrioxamine 100%

Compound | activation
COc1ccc(Br)c(C(=O)NCC2(N3CCCCC3)CCCCC2)c1 | inactive: -2.5%
CC(C)Oc1ccc(C(=O)NCC2(N(C)C)CCCCC2)cc1 | inactive: -3.45%
CN(C)c1cccc(C(=O)NCC2(N(C)C)CCCCC2)c1 | inactive: 0.0288%
O=C(OC1CN2CCC1CC2)C(CO)(c1ccccc1)c1ccccc1 (centres undefined) | inactive: 0.885%
COc1cccc(C(=O)NCC2(N3CCCCC3)CCCCC2)c1 | inactive: -0.545%
COc1ccc(Cl)cc1C(=O)NCC1(N(C)C)CCCCC1 | inactive: 0.287%
O=C(NCC1(N2CCCCC2)CCCCC1)c1cccc(Cl)c1 | inactive: 1.17%
CN(C)C1(CNC(=O)c2ccc(Br)cc2)CCCCC1 | inactive: 1.68%
COc1cc(C(=O)NCC2(N(C)C)CCCCC2)c([N+](=O)[O-])cc1OC | inactive: -13.3%
C=CCN1CCN(CCOC(=O)C(O)(c2ccccc2)c2ccccc2)CC1 | inactive: -0.634%
O=C(NCC1(N2CCCCC2)CCCCC1)c1cc(F)c(F)cc1Cl | inactive: -0.55%
COc1ccc(C(=O)NCC2(N(C)C)CCCCC2)cc1 | inactive: -4.88%
Cc1cc(C(=O)NCC2(N3CCCCC3)CCCCC2)ccc1[N+](=O)[O-] | inactive: 0.772%
CCN1CCCC(OC(=O)C2(O)c3ccccc3C=Cc3ccccc32)C1 (centres undefined) | inactive: -0.431%
O=C(NCC1(N2CCCCC2)CCCCC1)c1cccc(Br)c1 | inactive: -0.167%
Cc1ccccc1C(=O)NCC1(N2CCCCC2)CCCCC1 | inactive: 0.433%
CN(C)C1CCCC1OC(=O)C(O)(c1ccccc1)c1ccccc1 (centres undefined) | inactive: 1.19%
CN(C)c1ccc(C(=O)NCC2(N(C)C)CCCCC2)cc1 | inactive: 0.518%
CCN(CC)CC(C)C(C)OC(=O)C(O)(c1ccccc1)c1ccccc1 (centres undefined) | inactive: -0.0639%
COc1cc(SC)ccc1C(=O)NCC1(N(C)C)CCCCC1 | inactive: 0.0349%
CC(C)N1C(=O)CC2(CCN(CCOC(=O)C(O)(c3ccccc3)c3ccccc3)CC2)C1=O | inactive: -0.102%
Cc1ccc(C(=O)NCC2(N3CCCCC3)CCCCC2)cc1 | inactive: 0.421%
O=C(NCC1(N2CCCCC2)CCCCC1)c1cc([N+](=O)[O-])ccc1Cl | inactive: -0.536%
CN1[C@@H]2CC[C@H]1CC(OC(=O)C(O)(c1ccccc1)c1ccccc1)C2 (some centres undefined) | inactive: 0.0763%
